Data as given in patent US5874412A, “Bis-anthracyclines with high activity against doxorubicin resistant tumors” (priority 1997, dated 1999).
Structures can show the parent of a compound that is named as a salt.

How the values were obtained:
MCF-7/VP-16 cells = assay: MTT cytotoxicity assay, MRP-resistant MCF-7/VP-16 cells
KB-V-1 cells = conditions: ratio of ID50 values

SMILES: COc1cccc2c1C(=O)c1c(O)c3c(c(O)c1C2=O)C[C@@](O)(C(C)=O)C[C@@H]3O[C@H]1C[C@H](O)[C@H](NCc2ccc(CN[C@@H]3[C@H](C)O[C@@H](O[C@H]4C[C@](O)(C(C)=O)Cc5c(O)c6c(c(O)c54)C(=O)c4c(OC)cccc4C6=O)C[C@@H]3O)cc2)[C@H](C)O1 [WP652, α,α'-Bis-4'-N-(4'-amino-3'-deamino-4'-deoxy-3'-hydroxydaunorubicin)-p-xylene hydrochloride]
- cytotoxicity in MCF-7/VP-16 cells compared with DOX, in words (MCF-7/VP-16 cells; MRP-resistant MCF-7/VP-16): dramatic increase in cytotoxicity
- RI (resistance index) MCF-7/VP16 / MCF-7 (MCF-7/VP-16 cells; ratio of ID50 values, 4320 min): 0.9
- IC50 (MCF-7/VP-16 cells; read-out: ID50 MCF-7/VP16, MTT, 72 h, MRP-resistant MCF-7/VP-16): 3.49 µM
- RI (resistance index) KB-V-1 / KB-3-1 (KB-V-1 cells): 1.5
